Assay results taken from ChEMBL document CHEMBL2163249, “Exploration of natural compounds as sources of new bifunctional scaffolds targeting cholinesterases and beta amyloid aggregation: the case of chelerythrine” (Bioorg Med Chem, 2012).

Protein sequences, listed by entry. Tags and fused reporters are not part of them. Lines headed by an entry give the natural chain unless they say otherwise; changes in a name come on top.
UniProt O42275: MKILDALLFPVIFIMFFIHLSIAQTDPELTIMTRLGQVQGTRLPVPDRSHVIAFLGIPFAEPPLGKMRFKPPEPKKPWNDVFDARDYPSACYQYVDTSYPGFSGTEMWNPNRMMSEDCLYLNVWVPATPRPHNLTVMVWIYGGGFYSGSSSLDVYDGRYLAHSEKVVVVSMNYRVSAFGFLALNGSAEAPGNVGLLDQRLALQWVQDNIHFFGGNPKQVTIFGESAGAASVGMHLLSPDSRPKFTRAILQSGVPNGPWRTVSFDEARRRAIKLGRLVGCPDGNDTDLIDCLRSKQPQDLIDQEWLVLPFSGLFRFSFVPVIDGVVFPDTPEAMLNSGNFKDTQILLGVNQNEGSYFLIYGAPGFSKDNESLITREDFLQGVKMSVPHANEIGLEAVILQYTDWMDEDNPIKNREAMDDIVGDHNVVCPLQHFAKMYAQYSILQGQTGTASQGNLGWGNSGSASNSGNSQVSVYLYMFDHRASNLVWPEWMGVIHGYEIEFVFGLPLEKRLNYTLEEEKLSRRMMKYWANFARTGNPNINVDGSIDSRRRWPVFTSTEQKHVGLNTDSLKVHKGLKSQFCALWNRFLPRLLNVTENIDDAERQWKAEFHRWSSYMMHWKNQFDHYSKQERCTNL
UniProt P81908, whole entry: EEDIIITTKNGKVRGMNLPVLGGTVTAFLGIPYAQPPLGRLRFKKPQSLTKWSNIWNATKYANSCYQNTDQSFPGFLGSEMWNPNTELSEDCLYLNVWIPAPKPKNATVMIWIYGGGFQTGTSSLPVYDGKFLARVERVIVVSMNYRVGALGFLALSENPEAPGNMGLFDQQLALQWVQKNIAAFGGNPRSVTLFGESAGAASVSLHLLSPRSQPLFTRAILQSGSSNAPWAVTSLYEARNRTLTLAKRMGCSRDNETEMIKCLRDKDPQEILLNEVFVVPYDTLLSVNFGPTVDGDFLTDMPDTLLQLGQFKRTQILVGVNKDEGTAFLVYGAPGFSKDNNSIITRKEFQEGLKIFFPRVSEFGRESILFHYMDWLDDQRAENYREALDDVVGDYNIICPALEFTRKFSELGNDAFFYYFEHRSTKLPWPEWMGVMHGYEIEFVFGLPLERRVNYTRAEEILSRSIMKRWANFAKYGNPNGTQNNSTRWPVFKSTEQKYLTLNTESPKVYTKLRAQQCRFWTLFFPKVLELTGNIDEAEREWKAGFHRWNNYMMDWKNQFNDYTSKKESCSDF

Columns and labels:
[1] = molecular target: Acetylcholinesterase (Electrophorus electricus) (UniProt O42275); details: at 2 mg/mL
[2] = molecular target: Cholinesterase (Equus caballus) (UniProt P81908); details: 10 uM
[3] = molecular target: Cholinesterase (Equus caballus) (UniProt P81908); details: at 2 mg/mL

## COc1cc2c3cc1Oc1c(OC)c(OC)cc4c1[C@@H](Cc1ccc(OC(=O)c5ccc([N+](=O)[O-])cc5)c(c1)Oc1ccc(cc1)C[C@@H]3N(C)CC2)N(C)CC4 [E6 BERBAMINE]
[1]
  inhibition: -0.39%

## C[C@@H]1OC(=O)[C@H]2C[C@H]3CCCC[C@@H]3[C@@H](/C=C/[C@H]3CCC[C@H](C)N3C)[C@@H]12 [HIMBACINE]
[2]
  inhibition: 30.1%
[3]
  inhibition: 30.1%

## CC[C@H]1CN2CCc3c([nH]c4ccccc34)[C@H]2C[C@@H]1/C(=C\OC)C(=O)OC [HIRSUTINE]
[1]
  inhibition: 9.09%

## OC1c2ccccc2N=C2CCCN21 (configuration not stated) [PEGANOLE]
[1]
  inhibition: 39.3%

## C[C@@H]1CC[C@H]2[C@H](C)[C@H]3CC[C@@]4(O)[C@@H]5CC(=O)[C@H]6CC(=O)CC[C@]6(C)[C@H]5C[C@H]4[C@@H]3CN2C1 [SEVEDINDIONE]
[1]
  inhibition: 22.1%

## O[C@H]1CCN2Cc3ccccc3N=C12 [VASICINE]
[1]
  inhibition: 30.1%
